The results in this text go back to PubChem BioAssay AID504692 (The Scripps Research Institute Molecular Screening Center, 2011).

By UniProt entry, the sequences of proteins in these tests, tags left out.
UniProt P47898, whole entry, looked up: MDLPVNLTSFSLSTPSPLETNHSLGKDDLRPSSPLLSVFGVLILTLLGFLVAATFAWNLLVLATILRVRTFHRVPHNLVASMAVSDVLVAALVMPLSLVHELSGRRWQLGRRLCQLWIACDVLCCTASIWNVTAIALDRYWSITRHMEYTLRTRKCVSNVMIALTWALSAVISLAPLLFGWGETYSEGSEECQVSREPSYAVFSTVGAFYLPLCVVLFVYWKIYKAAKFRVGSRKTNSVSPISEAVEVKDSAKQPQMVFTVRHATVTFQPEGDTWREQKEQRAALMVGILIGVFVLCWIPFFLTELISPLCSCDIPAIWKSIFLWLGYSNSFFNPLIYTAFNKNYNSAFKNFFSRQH

Only a part is listed here, and it is no random draw. Active and inactive are the calls of the source. No stated cut-off is given here; in the data, active means activation mostly above about 9.5% (no sharp cut-off); inactive means mostly below about 7.6%.

In the assay the target is 5-hydroxytryptamine receptor 5A (Homo sapiens) (UniProt P47898). The assay is described as follows: HTR5A agonists in luminescence cell assay, primary screen, counter-screen for OPRM1-OPRD1 heterodimer agonist project, full-deck HTS (AID 504692).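 Further: 0% = cells with vehicle only and 100% = reference agonist.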 Conditions: cell-based, at 9.3 µM, active compounds read high. A general note: The purpose of a counterscreen is to sort out artefacts and off-target activity.
As for `COc1ccc(CCNC(=O)[C@H](C)NC(=O)N2CCn3c2nc2ccccc23)cc1OC`, the activation is inactive: -1.89%. To `CC(=O)Nc1ccc([As](=O)(O)O)c(O)c1` belongs inactive: -0.82%; to `CC1=NNC(=O)C1CCC(=O)N/N=C/C=C/c1ccccc1` (stereo not given), inactive: 0.87%; to `CSCC[C@H](NC(=O)N1CCn2c1nc1ccccc12)C(=O)NC1CCCCC1`, inactive: -0.11%. Regarding `O=S(=O)(c1ccc(F)cc1)N1CCn2c(nc3ccccc32)C1`, the activation is inactive: -3.32%.

With `CCC(C(=O)NC1CCCC1)n1c(SCc2cccc(C)c2)nc2ccncc21` (stereo not given), the activation is inactive: 5.98%. As for `CCOC(=O)c1ccc(NC(=O)C2CC(=O)Nc3nc4ccccc4n32)cc1` (stereo not given), the activation was inactive: -0.98%.

As for `COc1ccc2c(c1)C1(Nc3ccccc3-c3nc4ccccc4n31)C(=O)N2` (stereo not given), the activation is inactive: -1.74%.

For the compound `Cn1c(=O)c2c(ncn2CC(=O)Nc2cc(S(=O)(=O)N3CCCCC3)ccc2Cl)n(C)c1=O`, the activation was inactive: 4.08%. To `CN1C(=O)CC(n2c(CO)nc3ccccc32)C1=O` (stereo not given) belongs inactive: 2.84%; to `Cc1cc(NC(=O)CSc2nc3ccccc3n2CC(=O)N2CCC(C)CC2)no1`, inactive: 5.46%. For `O=C(CCNC(=O)N1CCn2c1nc1ccccc12)NCc1ccc(Cl)cc1` the value was inactive: 5.88%. To `Cc1nc2cc(C(F)(F)F)ccc2n1C1CCN(Cc2nnnn2CCc2ccccc2)CC1` belongs inactive: 6.84%; to `CC(=O)Nc1ccc(Oc2c([N+](=O)[O-])cc([N+](=O)[O-])cc2[N+](=O)[O-])cc1`, inactive: -1.28%; to `CC(C)(C)NC(=O)Cn1c(SCC(N)=O)nc2ccccc21`, inactive: -1.91%. Consider `CC(C)CCNC(=O)CC1C(=O)N(Cc2ccccc2)C(C)c2nc3ccccc3n21` (stereo not given), for which the activation was inactive: -3.83%. On to `O=C(Cn1c(NCCO)nc2ccccc21)Nc1ccc2c(c1)OCCCO2`, for which the activation was inactive: 4.27%. `N#Cc1cccc(NC(=O)Cn2c3[n+](c4ccc(C(F)(F)F)cc42)CCCCC3)c1`: the activation is inactive: 0.22%. To `N=c1n(CCCOc2ccccc2Cl)c2ccccc2n1CC(N)=O` belongs inactive: 5.03%.

Take `Cc1ccc2c(c1)C1CN(C)CCC1N2C(=O)COc1ccc(N(C)C(=O)c2ccccc2)cc1` (stereo not given): the activation was inactive: -1.25%. For `C[C@H](NC(=O)N1CCn2c1nc1ccccc12)C(=O)NCc1ccccc1` the value was inactive: -0.17%. To `CC1CN(C(=O)Cn2cnc3c2c(=O)n(C)c(=O)n3C)CC(C)O1` (stereo not given) belongs inactive: 2.74%; to `COC(=O)c1ccc(CNC(=O)Cn2cnc3c(NCc4ccccc4)ncnc32)cc1`, inactive: -0.7%; to `COc1cccc(CNC(=O)[C@H](CCSC)NC(=O)N2CCn3c2nc2ccccc23)c1`, inactive: 3.6%. Regarding `Cc1nc2ccccc2n1CC(=O)N1CC(=O)Nc2ccccc21`, the activation is inactive: 15.4%. As for `CCn1c(=O)c2c(nc3n2CCN3c2ccccc2)n(C)c1=O`, the activation is inactive: 0.58%. Turning to `O=C(Cn1cnc2c(OCc3ccccc3)ncnc21)NCc1ccccc1`, the activation was inactive: -2.99%.

Consider `O=P1(Nc2nc3ccc(Cl)cc3s2)COc2ccccc2O1` (stereo not given), for which the activation is inactive: 3.17%.

Take `CCOc1ccc(C2=NCC(CBr)S2)cc1` (stereo not given): the activation was inactive: 2.93%. For `COCCNC(=O)Cn1cnc2c1c(=O)n(C)c(=O)n2C` the value was inactive: -3.7%. As to `COCCN1CCn2c(nc3cc(NC(C)=O)ccc32)C1`, the activation was inactive: -2.42%. For the compound `CCc1cc(O)c([N+](=O)[O-])c(C)c1[N+](=O)[O-]`, the activation is inactive: -0.93%. Turning to `CCOC(=O)c1ccc(NC(=O)Cn2c(-c3nonc3N)nc3ccccc32)cc1`, the activation is inactive: 3.72%. As for `CSc1nc2ccccc2n1CC(=O)Nc1c(C)n(C)n(-c2ccccc2)c1=O`, the activation is inactive: -4.73%. Consider `O=C(Cn1c(-c2cncs2)nc2ccccc21)NCCc1ccccc1`, for which the activation was inactive: 4.69%. To `COc1cccc(C(=O)CSc2nc3ccccc3n2CC(=O)N2CCOCC2)c1` belongs inactive: 4.17%. To `CC(/C=C/c1ccccc1)=N/NC(=O)CCC(=O)Nc1ccccc1C` belongs inactive: 10.5%; to `Cc1ccc2c(c1)C1C[N+](C)(CC(=O)c3ccccc3)CCC1N2C(=O)c1ccccc1Cl` (stereo not given), inactive: 6.13%; to `O=C(Cn1c(CO)nc2ccccc21)Nc1ccccc1Cl`, inactive: 5.46%. To `COc1ccc(Cl)cc1NC(=O)CN(C)C(=O)Cn1cnc2c1c(=O)n(C)c(=O)n2C` belongs inactive: 3.78%; to `CC(C)(C)C(=O)NC(Sc1ccccc1)C(Cl)(Cl)Cl` (stereo not given), inactive: -2.03%; to `c1ccc(CN2CCC(Nc3nc(-c4cccnc4)nc4ccccc34)CC2)cc1`, inactive: 0.13%. With `COC(=O)C1=C(Cn2cnc3ccccc32)NC(=O)NC1c1cc(C)ccc1C` (stereo not given), the activation is inactive: 7.51%. To `COc1ccc(/C=N/NC(=O)Cn2cnc3c2c(=O)n(C)c(=O)n3C)cc1` belongs inactive: 1.59%. For `C[C@H](NC(=O)N1CCn2c1nc1ccccc12)C(=O)N1CCCCC1` the value was inactive: -1.34%.

As for `CCOC(=O)CC[C@H](NC(=O)Cn1cnc2c(SC)nc(N)nc21)C(=O)OCC`, the activation was inactive: 0.46%.

Take `CSc1nc2ccccc2n1CC(=O)Nc1ccc(C)c(C)c1`: the activation is inactive: 1.04%. With `CCc1cccc(CC)c1N(COC)C(=O)Cn1c(CO)nc2ccccc21`, the activation was inactive: 2.24%. For `CC(/C=N/NC(=O)Cn1cnc2c1c(=O)n(C)c(=O)n2C)=C\c1ccco1` the value was inactive: 0.67%. For `COC(=O)c1cc2c(s1)N=C(c1ccccc1)N(C)P2(=O)N1CCOCC1` (stereo not given) the value was inactive: 0.29%. Regarding `Cn1c(=O)c2c(ncn2CC(=O)NC2CCCCC2)n(C)c1=O`, the activation is inactive: 5.17%.

With `Cc1sc2ncnc(NC3CCN(Cc4ccccc4)CC3)c2c1C`, the activation is inactive: 1.67%. For `CC(C)NC(=O)Cn1cnc2c1c(=O)n(C)c(=O)n2C` the value was inactive: 0.23%; for `CC(=O)NC(SC(=S)N(CC(C)C)CC(C)C)C(Cl)(Cl)Cl` (stereo not given), inactive: 0.2%; for `Cc1ccc(OP(=O)(Nc2ccccn2)Oc2ccc(C)cc2)cc1`, inactive: 4.06%. Regarding `CC(C(=O)Nc1ccc2c(c1)OCO2)n1cnc2c1c(=O)n(C)c(=O)n2C` (stereo not given), the activation was inactive: -4.48%. As to `CCc1cccc(CC)c1N(COC)C(=O)Cn1c(C(C)O)nc2ccccc21` (stereo not given), the activation is inactive: -3.53%. For `Cn1c(=O)c2c(ncn2CC(=O)Nc2ccccc2N2CCOCC2)n(C)c1=O` the value was inactive: 3.51%; for `FC(F)(F)c1nc2ccccc2n1CCNc1nc(CN2CCCCC2)cs1`, inactive: 1.2%. For `CSc1nc(N)nc2c1ncn2CC(=O)NCC(c1ccccc1)c1ccccc1` the value was inactive: 1.89%. For `CC(C)N(C(=O)Cn1c(SCC(=O)Nc2nccs2)nc2ccccc21)C(C)C` the value was inactive: 9.83%. Regarding `O=C1CC(N2CCC(n3c(=O)[nH]c4ccccc43)CC2)C(=O)N1Cc1ccccc1` (stereo not given), the activation was inactive: 5.32%.

Turning to `Cc1ccc2c(c1)C1CN(C)CCC1N2C(=O)c1cccc(S(=O)(=O)N(C)C)c1` (stereo not given), the activation was inactive: -2.18%. Turning to `O=C(CCCCCNC(=O)N1CCn2c1nc1ccccc12)NCc1ccc(F)cc1`, the activation is inactive: 3.46%. On to `CN1CCC(N(C)c2ccc(C(N)=O)cc2[N+](=O)[O-])CC1`, for which the activation was inactive: 3.41%. To `CC(C)[C@H](NC(=O)N1CCn2c1nc1ccccc12)C(=O)NCCc1ccccc1` belongs inactive: 1.29%; to `Cc1ccc2c(c1)C1CN(C)CCC1N2S(=O)(=O)c1ccccc1` (stereo not given), inactive: 1.43%. For `CC(O)CNc1nc2ccccc2n1CC(=O)NC12CC3CC(CC(C3)C1)C2` (stereo not given) the value was inactive: 1.88%. With `O=C(OC1CN2CCC1CC2)c1ccccc1` (stereo not given), the activation is inactive: 4.11%. For `CC1CN(CCn2cnc3c(N)ncnc32)CC(C)O1` (stereo not given) the value was inactive: 1.21%; for `CCC(=O)N1C2C3N(C(=O)CC)C1C1N(C(=O)CC)C(C(N1C(=O)CC)N3C(=O)CC)N2C(=O)CC`, inactive: -2.08%; for `O=C(Cn1c(=O)n(CC(=O)NCc2ccccc2)c2ccccc21)NCc1ccccc1`, inactive: 5.69%. For `Clc1ccc(N2CCN(Cc3c[nH]c4ncccc34)CC2)cc1` the value was inactive: 4.75%; for `Cc1ccc2c(c1)C1CN(C)CCC1N2C(=S)NC(=O)c1ccc(Cl)cc1Cl` (stereo not given), inactive: 0.88%.

Consider `Cc1ccc(C)c(Cn2c(=O)c3c(nc4n3CCN4Cc3ccco3)n(C)c2=O)c1`, for which the activation was inactive: -4.14%. For `CCCC(=O)Nc1ccc2c(c1)nc1n2CCN(CCOC)C1` the value was inactive: -1.66%. With `CC(/C=N\NC(=O)Cn1c(C)nc2ccccc21)=C\c1ccccc1`, the activation is inactive: 2.48%. To `COCCNC(=O)Cn1c(=O)n(C)c2ccccc21` belongs inactive: 1.37%; to `Cn1c(=O)c2c(ncn2CC(=O)N2CCN(c3ccccc3)CC2)n(C)c1=O`, inactive: -1.76%.

On to `COCCN1CCn2c(nc3cc(Nc4nnc(C)c5ccccc45)ccc32)C1`, for which the activation was inactive: 0.07%. To `C[C@H](O)[C@@H]1C(=O)N2CCc3ccc(-c4cccc(F)c4)cc3[C@@H]2C[C@@H]1N(C)C(=O)Nc1ccccc1` belongs inactive: 0.4%; to `CC1CCCN(C(=O)Cn2cnc3c2c(=O)n(C)c(=O)n3C)C1` (stereo not given), inactive: 1.39%. To `CC(NC(=O)COC(=O)C(O)(c1ccccc1)c1ccccc1)c1ccccc1` (stereo not given) belongs inactive: -4.63%; to `CCc1cccc(C)c1N(C(=O)Cn1c(CO)nc2ccccc21)C(C)COC` (stereo not given), inactive: -0.56%; to `Cc1ccc(CNC(=O)Cn2cnc3c(NC(=O)OCc4ccccc4)ncnc32)o1`, inactive: -0.37%.

With `Cc1ccccc1OP(=O)(Nc1ccccn1)Oc1ccccc1C`, the activation was inactive: 4.56%. For `CCOC(=O)C1=C(Cn2cnc3ccccc32)NC(=O)NC1c1ccc(Cl)cc1` (stereo not given) the value was inactive: 2.49%; for `CN(C)CCn1cnc2ccccc21`, inactive: -0.16%. On to `O=c1c2cc([N+](=O)[O-])ccc2[nH]c2c([N+](=O)[O-])cc([N+](=O)[O-])cc12`, for which the activation is inactive: 0.83%. For `CN(C)C(=O)Oc1noc2ccccc12` the value was inactive: 2.09%.
